From patent US20250145561A1, “4-SUBSTITUTED-PHENYL ACETAMIDES AND ARYLUREAS AS AGONISTS FOR THE ORPHAN RECEPTOR GPR88” (RESEARCH TRIANGLE INSTITUTE, priority 2022, published 2025)

Protein sequences, listed by entry. Tags and fused reporters are not part of them. Lines headed by an entry give the natural chain unless they say otherwise; changes in a name come on top.
UniProt Q9GZN0: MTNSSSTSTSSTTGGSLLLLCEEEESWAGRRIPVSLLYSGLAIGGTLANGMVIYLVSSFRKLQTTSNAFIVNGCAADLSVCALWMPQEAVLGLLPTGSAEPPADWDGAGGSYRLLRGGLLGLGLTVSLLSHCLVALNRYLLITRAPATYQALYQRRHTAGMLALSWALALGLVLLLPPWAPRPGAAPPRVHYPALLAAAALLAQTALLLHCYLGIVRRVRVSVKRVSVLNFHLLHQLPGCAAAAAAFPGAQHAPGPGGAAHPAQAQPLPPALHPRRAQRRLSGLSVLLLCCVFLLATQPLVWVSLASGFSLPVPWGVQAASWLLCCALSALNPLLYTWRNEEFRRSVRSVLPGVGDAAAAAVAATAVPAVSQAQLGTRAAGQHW

These molecules were tested against GPR88 (Homo sapiens, UniProt Q9GZN0) (assay: Lance Ultra TR-FRET cAMP assay using stable PPLS-HA-GPR88 CHO cells). Details: 300 nM forskolin, mean ± standard error of at least three independent experiments in duplicate.
Type: cell-based
Experimental: The compounds of the present disclosure offer potent agonism to the orphan receptor GPR88. As such, the compounds of the present disclosure provide therapeutic potential for the treatment of striatal associated disorders such as Parkinson's disease, schizophrenia, and alcohol addiction. All compounds were evaluated for the GPR88 agonist activity in the inventors' previously established in vitro GPR88 Lance TR-FRET cAMP assay. See, supra, Jin et al., 2018, Rahman et al., 2020, and Rahman et al., 2021. As will be described, the TR-FRET signal was converted to fmol cAMP by interpolating from the standard cAMP curve. Fmol cAMP was plotted against the log of compound concentration and data were fit to a three-parameter logistic curve to generate maximum response (Emax) and EC50 values.
Lance™ Ultra cAMP assay using stable PPLS-HA-GPR88 CHO cells. All cAMP assays were performed using the inventors' previously published methods. See, e.g., Jin et al., Effect of substitution on the aniline moiety of the GPR88 agonist 2-PCCA: synthesis, structure-activity relationships, and molecular modeling studies. ACS Chemical Neuroscience 2016, 7, 1418-1432, which is incorporated by reference herein with regard to such teaching. Stimulation buffer containing 1× Hank's Balanced Salt Solution (HBSS), 5 mM HEPES, 0.1% BSA stabilizer, and 0.5 mM final IBMX was prepared and titrated to pH 7.4 at room temperature. Serial dilutions of the test compounds (5 μL) and 300 nM forskolin (5 μL), both prepared at 4× the desired final concentration in 2% DMSO/stimulation buffer, were added to a 96-well white ½ area microplate (PerkinElmer). A cAMP standard curve was prepared at 4× the desired final concentration in stimulation buffer and 5 μL was added to the assay plate. Stable PPLS-HA-GPR88 CHO cells were lifted with versene and spun at 270 g for 10 minutes. The cell pellet was resuspended in stimulation buffer and 4,000 cells (10 μL) were added to each well except wells containing the cAMP standard curve. After incubating for 30 min at room temperature, Eu-cAMP tracer and uLIGHT-anti-cAMPworking solutions were added per the manufacturer's instructions. After incubation at room temperature for 1 hour, the TR-FRET signal (ex 337 nm) was read on a CLARIOstar multimode plate reader (BMG Biotech, Cary, NC).
Data Analysis. The TR-FRET signal (665 nm) was converted to fmol cAMP by interpolating from the standard cAMP curve. Fmol cAMP was plotted against the log of compound concentration and data were fit to a three-parameter logistic curve to generate EC50 values (Prism, version 6.0, GraphPad Software, Inc., San Diego, CA). The Emax value for each test compound relative to the control compound RTI-13951-33 was calculated with the equation % control Emax=(maximal test compound signal/maximal control signal)×100.

SMILES | cAMP pEC50
CCCC(C)COc1ccc([C@@H](CO)C(=O)N[C@H](C)c2ccccc2C)cc1 (stereo partly drawn) [Compound 9, (2S)-3-Hydroxy-2-{4-[(2-methylpentyl)oxy]phenyl}-N-[(1 R)-1-(2-methylphenyl)ethyl]propenamide] | 5.28 ± 0.13
CCCC(C)COc1ccc([C@@H](CO)C(=O)N[C@H](C)c2ccco2)cc1 (stereo partly drawn) [Compound 22, (2S)—N-[(1 R)-1-(Furan-2-yl)ethyl]-3-hydroxy-2-{4-[(2-methylpentyl)oxy]phenyl}propenamide] | 5.99 ± 0.09
CCCC(C)COc1ccc([C@@H](CO)C(=O)N[C@H](C)c2ccc(F)cc2)cc1 (stereo partly drawn) [Compound 12, (2S)—N-[(1 R)-1-(4-Fluorophenyl)ethyl]-3-hydroxy-2-{4-[(2-methylpentyl)oxy]phenyl}propenamide] | 6.05 ± 0.05
CCCC(C)COc1ccc([C@@H](CO)C(=O)N[C@@H]2C[C@H]2c2ccccc2)cc1 (stereo partly drawn) [Compound 24] | 5.39 ± 0.09
CCCC(C)COc1ccc([C@@H](CO)C(=O)N[C@H](C)c2cccc(C)c2)cc1 (stereo partly drawn) [Compound 10, (2S)-3-Hydroxy-2-{4-[(2-methylpentyl)oxy]phenyl}-N-[(1 R)-1-(3-methylphenyl)ethyl]propenamide] | 6.45 ± 0.04
CCCC(C)COc1ccc([C@H](CO)C(=O)N[C@H](C)c2ccccc2)cc1 (stereo partly drawn) [Compound 3, (2R)-3-Hydroxy-2-{4-[(2-methylpentyl)oxy]phenyl}-N-[(1 R)-1-phenylethyl]propanamide] | 5.46 ± 0.05
CCCC(C)COc1ccc([C@@H](CO)C(=O)N[C@H](CC)c2ccccc2)cc1 (stereo partly drawn) [Compound 17, (2S)-3-Hydroxy-2-{4-[(2-methylpentyl)oxy]phenyl}-N-[(1 R)-1-phenylpropyl]propenamide] | 6.44 ± 0.04
CCCC(C)COc1ccc([C@@H](CO)C(=O)N[C@H](C)c2ccccn2)cc1 (stereo partly drawn) [Compound 21, (2S)-3-Hydroxy-2-{4-[(2-methylpentyl)oxy]phenyl}-N-[(1 R)-1-(pyridin-2-yl)ethyl]propenamide] | 5.41 ± 0.10
CCCC(C)COc1ccc([C@@H](CO)C(=O)NCCc2ccccc2)cc1 (stereo partly drawn) [Compound 16, (2S)-3-Hydroxy-2-{4-[(2-methylpentyl)oxy]phenyl}-N-(2-phenylethyl)propenamide] | 6.15 ± 0.06
CCCC(C)COc1ccc([C@@H](CO)C(=O)N[C@H](C)c2ccc(OC)cc2)cc1 (stereo partly drawn) [Compound 13, (2S)-3-Hydroxy-N-[(1 R)-1-(4-methoxyphenyl)ethyl]-2-{4-[(2-methylpentyl)oxy]phenyl}propenamide] | 6.13 ± 0.11
CCCC(C)COc1ccc([C@@H](CO)C(=O)N[C@H](COC)c2ccccc2)cc1 (stereo partly drawn) [Compound 18, (2S)-3-Hydroxy-N-[(1 S)-2-methoxy-1-phenylethyl]-2-{4-[(2-methylpentyl)oxy]phenyl}propenamide] | 6.29 ± 0.05
CCCC(C)COc1ccc([C@@H](CO)C(=O)NCc2ccccc2)cc1 (stereo partly drawn) [Compound 15, (2S)—N-Benzyl-3-hydroxy-2-{4-[(2-methylpentyl)oxy]phenyl}propenamide] | 6.23 ± 0.09
CCCC(C)COc1ccc([C@@H](CO)C(=O)N[C@H](C)c2ccc(C)cc2)cc1 (stereo partly drawn) [Compound 11, (2S)-3-Hydroxy-2-{4-[(2-methylpentyl)oxy]phenyl}-N-[(1 R)-1-(4-methylphenyl)ethyl]propenamide] | 6.83 ± 0.07
CCCC(C)COc1ccc([C@@H](CO)C(=O)N[C@H](C)c2cccs2)cc1 (stereo partly drawn) [Compound 23, (2S)-3-Hydroxy-2-{4-[(2-methylpentyl)oxy]phenyl}-N-[(1 R)-1-(thiophen-2-yl)ethyl]propenamide] | 6.29 ± 0.08
CCCC(C)COc1ccc([C@@H](CO)C(=O)NC2(c3ccccc3)CC2)cc1 (stereo partly drawn) [Compound 20, (2S)-3-Hydroxy-2-{4-[(2-methylpentyl)oxy]phenyl}-N-(1-phenylcyclopropyl)propenamide] | 5.72 ± 0.08
